Measured values from patent US20240408246A1, “Animal Model With Rapid Onset Of Alzheimer's Amyloid Beta Plaque Pathology” (Regeneron Pharmaceuticals, Inc., priority 2023, published 2024).

Tested on: AAV-APP/PS1 mouse model
Assay: Prophylactic anti-Aβ antibody treatment in the AAV-APP/PS1 mouse model
Format: in vivo
Conditions: weekly antibody for 7 weeks from 1 week post-AAV injection
Experimental: Antibody treatment was started 1 week post-AAV injection to induce amyloid plaque deposition. Antibody was administered weekly for 7 weeks before taking down the mice 1 week after the final antibody administration.
We tested an anti-Aβ antibody, Aducanumab, which is known to clear plaques in Alzheimer's patients, in the AAV-APP/PS1 mouse model described in Example 1. We started antibody treatment 1 week post-AAV injection in the hippocampus to induce amyloid plaque deposition. We did weekly antibody administration for 7 weeks and took down the mice 1 week after the final antibody administration (FIG. 20A).

## Aducanumab
  levels of APP and intracellular APP C-terminal fragments: did not change
Compared to control antibody
  plaque-associated dystrophic neurite marker Lamp1: significantly reduced
Taken down 1 week after final administration, compared to control antibody
  plaque levels: significantly reduced
